Experimental data: ChEMBL document CHEMBL1138285, “Structure-activity relationships of adenosines with heterocyclic N6-substituents” (Bioorg Med Chem Lett, 2007)

Assays:
[1] = system: Adenosine receptor A1 (Mesocricetus auratus); assay: Intrinsic activity at adenosine A1 receptor expressed in DDT1 MF2 cells assessed as maximal inhibition of (-)-isoproterenol-stimulated cAMP accumulation
Homo sapiens = organism: Homo sapiens; assay: Selectivity for adenosine A1 receptor over adenosine A2A receptor

Structure (SMILES) | Intrinsic activity [1] | Ratio Ki (Homo sapiens)
OC[C@H]1O[C@@H](n2cnc3c(N[C@@H]4CCSC4)ncnc32)[C@H](O)[C@@H]1O | 0.98 | 140
O=C(OCc1ccccc1)N1[C@H]2CC[C@H]1[C@H](Nc1ncnc3c1ncn3[C@@H]1O[C@H](CO)[C@@H](O)[C@H]1O)C2 | 1.01 | –
O=C(OCc1ccccc1Cl)N1[C@H]2CC[C@H]1[C@H](Nc1ncnc3c1ncn3[C@@H]1O[C@H](CO)[C@@H](O)[C@H]1O)C2 | 0.86 | –
O=C(OCc1ccccc1)N1CC[C@@H](Nc2ncnc3c2ncn3[C@@H]2O[C@H](CO)[C@@H](O)[C@H]2O)C1 | 0.99 | > 4700
CC(=O)N1CC[C@@H](Nc2ncnc3c2ncn3[C@@H]2O[C@H](CO)[C@@H](O)[C@H]2O)C1 | 1 | > 4700
OC[C@H]1O[C@@H](n2cnc3c(NC4CC5CCC4N5)ncnc32)[C@H](O)[C@@H]1O (stereo not given in full) | 1.02 | –
OC[C@H]1O[C@@H](n2cnc3c(N[C@@H]4CC[Se]C4)ncnc32)[C@H](O)[C@@H]1O | 1.01 | –
